Molecular target: AR-VP16 (Homo sapiens, UniProt P10275)
Assay: AR-VP16 DNA Binding Assay, antagonist mode (HepG2 cells, 0.1 nM R1881)
Assay type: cell-based
Conditions: read-out: ARVP16 DNA Binding Assay (Antagonist mode): IC50 < 1.0 μM

The chains behind the UniProt entries cited, without tags or fusion partners. Residues count along the entry.
UniProt P10275, 560-920 limits assumed: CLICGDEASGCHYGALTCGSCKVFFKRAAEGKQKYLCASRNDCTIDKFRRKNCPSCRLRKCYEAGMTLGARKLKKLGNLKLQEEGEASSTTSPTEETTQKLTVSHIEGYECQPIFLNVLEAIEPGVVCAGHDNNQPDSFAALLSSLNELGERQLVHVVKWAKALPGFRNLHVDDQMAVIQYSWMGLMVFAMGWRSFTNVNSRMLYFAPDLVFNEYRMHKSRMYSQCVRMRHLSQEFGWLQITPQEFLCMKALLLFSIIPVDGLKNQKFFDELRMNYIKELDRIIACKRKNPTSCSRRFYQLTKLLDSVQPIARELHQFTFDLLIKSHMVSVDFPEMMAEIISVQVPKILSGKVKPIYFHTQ

Compared with `CN1CCC(Oc2ccc(N3C(=S)N(c4cnc(C#N)c(C(F)(F)F)c4)C(=O)C34CCC4)cc2)CC1` [Compound 129, 5-(5-(4-((1-Methylpiperidin-4-yl)oxy)phenyl)-8-oxo-6-thioxo-5,7-diazaspiro[3.4]octan-7-yl)-3-(trifluoromethyl)picolinonitrile], `N#Cc1ncc(N2C(=O)C3(CCC3)N(c3ccc(N4CCNCC4)cc3)C2=S)cc1C(F)(F)F` [Compound 118, 5-(8-Oxo-5-(4-(piperazin-1-yl)phenyl)-6-thioxo-5,7-diazaspiro[3.4]octan-7-yl)-3-(trifluoromethyl)picolinonitrile] is higher in IC50: less than 1000 nM for the first, greater than 1000 nM for the second. The first is the more potent here.

Compound `N#Cc1ncc(N2C(=O)C3(CCC3)N(c3ccc(O)cc3)C2=S)cc1C(F)(F)F` [Compound 63, 5-(5-(4-hydroxyphenyl)-8-oxo-6-thioxo-5,7-diazaspiro[3.4]octan-7-yl)-3-(trifluoromethyl)picolinonitrile] has an IC50 of less than 1000 nM.

Source: US9108944B2, “Androgen receptor modulators and uses thereof” (ARAGON PHARMACEUTICALS, INC., priority 2010, dated 2015)
